Publication PMC11272598, “RG7774 (Vicasinabin), an orally bioavailable cannabinoid receptor 2 (CB2R) agonist, decreases retinal vascular permeability, leukocyte adhesion, and ocular inflammation in animal models” (Frontiers in Pharmacology, 2024)

Sequences of proteins named here, by UniProt entry; tags and fusion partners are left off.
UniProt P47746, whole entry: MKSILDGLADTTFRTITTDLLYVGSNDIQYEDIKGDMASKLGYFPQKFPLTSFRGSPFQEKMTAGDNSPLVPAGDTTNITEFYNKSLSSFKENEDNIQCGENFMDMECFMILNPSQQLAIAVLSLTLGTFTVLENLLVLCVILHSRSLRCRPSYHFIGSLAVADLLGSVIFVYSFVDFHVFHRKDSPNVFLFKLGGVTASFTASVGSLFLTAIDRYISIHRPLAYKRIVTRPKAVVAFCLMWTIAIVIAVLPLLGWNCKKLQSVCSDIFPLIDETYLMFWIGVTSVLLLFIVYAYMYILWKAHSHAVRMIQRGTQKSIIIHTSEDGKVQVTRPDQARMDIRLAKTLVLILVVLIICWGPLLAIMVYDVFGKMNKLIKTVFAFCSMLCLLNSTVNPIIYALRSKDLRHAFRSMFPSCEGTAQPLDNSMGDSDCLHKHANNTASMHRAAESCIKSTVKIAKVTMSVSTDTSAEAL

Molecular target: Mouse CB1R (Mus musculus, UniProt P47746)
Test: Competitive binding assay in mouse brain membranes, [^3H]-CP55940
Parameters: mouse brain membranes expressing endogenous CB1R; from tissue; host or cells: mouse brain membranes
Protocol: Mouse brain was resuspended in 2 mM Tris–EDTA, 320 mM sucrose, 5 mM MgCl2 (pH 7.4), homogenized using a glass potter, and centrifuged 3 times, each at 1000 g for 10 min.

Structure (SMILES): Cc1c(C(=O)NN2CCCCC2)nn(-c2ccc(Cl)cc2Cl)c1-c1ccc(Cl)cc1 [Rimonabant]
- Mean ± SEM % inhibition of control, Mouse CB1R (competitive binding assay) (positive control 1 µM): 111.2 ± 5.6%
- inhibition at 1 µM (read-out: Mean ± SEM % inhibition of control, Mouse CB1R (competitive binding assay), positive control 1 µM): 112%
